From PMC3931418 (Nature, 2014)

Sequences of proteins named here, by UniProt entry; tags and fusion partners are left off.
UniProt P41143, whole entry D95A: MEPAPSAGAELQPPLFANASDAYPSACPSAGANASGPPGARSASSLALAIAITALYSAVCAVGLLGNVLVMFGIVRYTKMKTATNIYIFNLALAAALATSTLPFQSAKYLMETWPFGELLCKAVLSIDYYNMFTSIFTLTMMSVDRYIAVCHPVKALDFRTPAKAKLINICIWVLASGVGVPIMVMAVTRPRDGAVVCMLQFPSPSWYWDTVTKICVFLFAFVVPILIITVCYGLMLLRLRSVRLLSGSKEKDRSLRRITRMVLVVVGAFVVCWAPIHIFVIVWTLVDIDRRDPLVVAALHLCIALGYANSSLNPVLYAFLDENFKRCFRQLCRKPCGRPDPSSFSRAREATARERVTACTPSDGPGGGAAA
UniProt P41143, whole entry N314A: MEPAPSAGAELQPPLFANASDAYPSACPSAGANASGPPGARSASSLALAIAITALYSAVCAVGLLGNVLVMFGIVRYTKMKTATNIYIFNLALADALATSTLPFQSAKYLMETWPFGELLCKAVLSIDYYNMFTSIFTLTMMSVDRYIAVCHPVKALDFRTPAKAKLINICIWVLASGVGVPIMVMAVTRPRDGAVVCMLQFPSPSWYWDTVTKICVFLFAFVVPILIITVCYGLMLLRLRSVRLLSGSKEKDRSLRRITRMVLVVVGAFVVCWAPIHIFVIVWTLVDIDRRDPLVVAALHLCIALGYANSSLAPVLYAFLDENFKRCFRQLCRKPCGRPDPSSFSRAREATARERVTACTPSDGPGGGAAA
UniProt P41143, whole entry N310A: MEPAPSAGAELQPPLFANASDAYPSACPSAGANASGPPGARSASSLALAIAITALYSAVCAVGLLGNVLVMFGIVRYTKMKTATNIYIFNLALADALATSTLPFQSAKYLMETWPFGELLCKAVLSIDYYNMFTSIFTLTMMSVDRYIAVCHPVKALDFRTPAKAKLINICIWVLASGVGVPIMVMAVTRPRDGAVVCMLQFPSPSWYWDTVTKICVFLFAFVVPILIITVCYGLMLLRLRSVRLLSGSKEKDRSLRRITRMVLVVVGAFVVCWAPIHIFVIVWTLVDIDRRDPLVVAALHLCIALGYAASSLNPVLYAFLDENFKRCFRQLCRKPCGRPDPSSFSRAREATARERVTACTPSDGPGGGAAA
UniProt P41143, whole entry N131V: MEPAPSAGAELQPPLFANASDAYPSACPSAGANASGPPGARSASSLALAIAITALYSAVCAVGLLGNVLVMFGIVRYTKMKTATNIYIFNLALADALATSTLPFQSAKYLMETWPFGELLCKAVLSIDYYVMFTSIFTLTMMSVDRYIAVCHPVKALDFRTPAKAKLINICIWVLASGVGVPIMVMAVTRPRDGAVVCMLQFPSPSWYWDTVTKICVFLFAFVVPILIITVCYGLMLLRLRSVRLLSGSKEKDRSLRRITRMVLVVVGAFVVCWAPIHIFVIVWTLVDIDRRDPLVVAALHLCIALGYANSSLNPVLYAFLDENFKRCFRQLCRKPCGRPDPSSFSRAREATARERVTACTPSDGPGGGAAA

Assays:
δ-OR Asp95Ala mutant [1] = target: T1, δ-OR Asp95Ala mutant (Homo sapiens, UniProt P41143, D95A); settings: Asp95Ala sodium site mutant
δ-OR Asp95Ala mutant [2] = target: T1, δ-OR Asp95Ala mutant; assay: cAMP assay; format: cell-based
δ-OR Asn314Ala mutant = δ-OR Asn314Ala mutant (Homo sapiens, UniProt P41143, N314A)
δ-OR Asn310Ala mutant = δ-OR Asn310Ala mutant (Homo sapiens, UniProt P41143, N310A)
δ-OR N131V (HEK293) = δ-OR N131V (HEK293) (Homo sapiens, UniProt P41143, N131V); format: binding
[3] = cooperativity of sodium with DADLE

SMILES: Oc1ccc2c3c1O[C@H]1c4oc5ccccc5c4C[C@@]4(O)[C@@H](C2)N(CC2CC2)CC[C@]314 [naltriben]
- agonist activity at the β-arrestin pathway (δ-OR Asp95Ala mutant [1]): gained potent β-arrestin-biased agonist activity

SMILES: O=C1/C(=C/c2ccccc2)C[C@@]2(O)[C@H]3Cc4ccc(O)c5c4[C@@]2(CCN3CC2CC2)[C@H]1O5 [BNTX]
- agonist activity at the β-arrestin pathway (δ-OR Asp95Ala mutant [1]): gained potent β-arrestin-biased agonist activity

SMILES: Oc1ccc2c3c1O[C@H]1c4[nH]c5ccccc5c4C[C@@]4(O)[C@@H](C2)N(CC2CC2)CC[C@]314 [naltrindole]
- Gi signaling (δ-OR Asp95Ala mutant [2]): abrogation of Gi signaling
- agonist activity at the β-arrestin pathway (β-arrestin recruitment) (δ-OR Asn314Ala mutant): potent β-arrestin-biased agonist
- agonist activity at the β-arrestin pathway (β-arrestin recruitment) (δ-OR Asn310Ala mutant): potent β-arrestin-biased agonist

SMILES: [Na+] [sodium]
- Hill Coefficient (δ-OR N131V (HEK293)): 0.61 ± 0.02
- Na+ pKB ± SEM (δ-OR N131V (HEK293)): 1.11 ± 0.15
- pα ± SEM (δ-OR N131V (HEK293); [3]): 1.61 ± 0.86
- α (δ-OR N131V (HEK293); [3]): 0.025
- Kb (δ-OR N131V (HEK293); read-out: Na+ KB): 77 mM
